Legend:
Assay in all cases: biochemical
Conditions in all cases: read-out: % remaining activity
[1] = biological target: CDK2/cyclin A1 (Homo sapiens, UniProt P24941)
[2] = biological target: PRKD3 (Homo sapiens, UniProt O94806)
[3] = biological target: CAMK2a (Homo sapiens, UniProt Q9UQM7)
[4] = biological target: T1, MST1 (Homo sapiens, UniProt Q13043)
T1 construct: gene STK4

By UniProt entry, the sequences of proteins in these tests, tags left out. Where a name states a change or a piece, a line headed by the entry shows the natural chain unless it says otherwise.
UniProt Q9UQM7, whole entry: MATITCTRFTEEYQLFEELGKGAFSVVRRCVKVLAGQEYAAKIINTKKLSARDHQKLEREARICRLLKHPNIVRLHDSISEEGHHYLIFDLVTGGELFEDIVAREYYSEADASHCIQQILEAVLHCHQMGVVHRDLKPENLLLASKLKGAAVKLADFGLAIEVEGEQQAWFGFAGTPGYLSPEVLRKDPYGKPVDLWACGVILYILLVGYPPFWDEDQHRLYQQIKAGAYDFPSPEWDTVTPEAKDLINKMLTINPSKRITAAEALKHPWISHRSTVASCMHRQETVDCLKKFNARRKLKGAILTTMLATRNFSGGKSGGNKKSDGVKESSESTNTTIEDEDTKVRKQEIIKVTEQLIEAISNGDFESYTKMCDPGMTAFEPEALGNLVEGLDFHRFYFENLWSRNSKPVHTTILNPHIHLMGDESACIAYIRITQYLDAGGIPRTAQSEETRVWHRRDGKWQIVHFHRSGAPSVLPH
UniProt P32298, whole entry: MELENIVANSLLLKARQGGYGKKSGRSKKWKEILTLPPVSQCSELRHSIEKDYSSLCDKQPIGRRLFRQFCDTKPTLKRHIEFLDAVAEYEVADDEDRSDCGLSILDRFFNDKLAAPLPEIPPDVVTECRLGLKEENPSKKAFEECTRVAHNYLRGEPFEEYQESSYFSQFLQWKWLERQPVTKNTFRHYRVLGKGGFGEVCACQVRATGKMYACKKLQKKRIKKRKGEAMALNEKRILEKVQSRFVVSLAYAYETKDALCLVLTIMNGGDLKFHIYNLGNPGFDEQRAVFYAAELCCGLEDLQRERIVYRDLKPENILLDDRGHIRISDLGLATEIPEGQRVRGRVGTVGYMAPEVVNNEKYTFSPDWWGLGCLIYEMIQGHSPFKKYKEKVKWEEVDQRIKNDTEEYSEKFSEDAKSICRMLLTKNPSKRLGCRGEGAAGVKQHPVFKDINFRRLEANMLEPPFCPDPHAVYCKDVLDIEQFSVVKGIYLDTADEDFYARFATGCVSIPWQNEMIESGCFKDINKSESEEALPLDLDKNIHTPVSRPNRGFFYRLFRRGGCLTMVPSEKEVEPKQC
UniProt O60285: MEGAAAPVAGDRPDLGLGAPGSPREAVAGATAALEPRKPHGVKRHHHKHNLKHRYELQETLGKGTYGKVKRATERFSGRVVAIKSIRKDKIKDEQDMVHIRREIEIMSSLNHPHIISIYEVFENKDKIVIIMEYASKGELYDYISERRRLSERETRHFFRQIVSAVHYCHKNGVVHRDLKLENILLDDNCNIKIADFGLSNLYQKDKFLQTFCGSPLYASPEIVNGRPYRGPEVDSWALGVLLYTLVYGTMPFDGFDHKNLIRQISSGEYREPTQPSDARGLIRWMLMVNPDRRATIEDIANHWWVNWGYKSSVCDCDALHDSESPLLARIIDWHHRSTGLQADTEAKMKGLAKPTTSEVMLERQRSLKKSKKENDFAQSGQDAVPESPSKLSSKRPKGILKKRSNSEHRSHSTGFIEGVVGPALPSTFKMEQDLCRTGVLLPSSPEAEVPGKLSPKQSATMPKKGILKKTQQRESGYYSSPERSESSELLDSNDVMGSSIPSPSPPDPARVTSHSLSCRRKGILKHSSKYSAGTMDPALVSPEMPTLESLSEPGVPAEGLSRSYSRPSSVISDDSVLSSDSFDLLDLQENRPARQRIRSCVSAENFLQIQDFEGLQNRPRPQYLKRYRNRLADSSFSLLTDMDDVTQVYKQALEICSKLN
UniProt Q96NX5: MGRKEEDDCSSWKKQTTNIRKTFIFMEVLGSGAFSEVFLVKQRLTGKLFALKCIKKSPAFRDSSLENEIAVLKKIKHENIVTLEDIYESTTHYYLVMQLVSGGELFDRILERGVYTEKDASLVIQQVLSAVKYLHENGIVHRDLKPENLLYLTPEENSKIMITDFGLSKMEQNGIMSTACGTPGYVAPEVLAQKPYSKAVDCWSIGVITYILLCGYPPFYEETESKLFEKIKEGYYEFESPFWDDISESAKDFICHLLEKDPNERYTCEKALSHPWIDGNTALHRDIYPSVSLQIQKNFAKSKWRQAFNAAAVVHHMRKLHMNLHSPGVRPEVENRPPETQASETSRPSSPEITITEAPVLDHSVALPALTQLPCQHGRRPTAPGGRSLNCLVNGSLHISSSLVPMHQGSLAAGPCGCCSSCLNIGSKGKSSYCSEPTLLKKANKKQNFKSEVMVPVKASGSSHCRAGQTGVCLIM
UniProt O00506, whole entry: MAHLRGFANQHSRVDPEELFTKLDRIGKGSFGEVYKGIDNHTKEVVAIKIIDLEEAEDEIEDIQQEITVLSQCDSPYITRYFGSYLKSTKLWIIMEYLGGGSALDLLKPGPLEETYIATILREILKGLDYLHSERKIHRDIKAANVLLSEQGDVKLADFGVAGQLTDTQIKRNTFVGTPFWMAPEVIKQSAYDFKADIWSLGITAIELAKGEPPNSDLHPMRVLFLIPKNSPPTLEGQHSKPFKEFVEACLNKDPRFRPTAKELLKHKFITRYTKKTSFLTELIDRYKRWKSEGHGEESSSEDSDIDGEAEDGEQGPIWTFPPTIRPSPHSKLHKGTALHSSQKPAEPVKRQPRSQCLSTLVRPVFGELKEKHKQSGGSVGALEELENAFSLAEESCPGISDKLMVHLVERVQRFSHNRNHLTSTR
UniProt P43403: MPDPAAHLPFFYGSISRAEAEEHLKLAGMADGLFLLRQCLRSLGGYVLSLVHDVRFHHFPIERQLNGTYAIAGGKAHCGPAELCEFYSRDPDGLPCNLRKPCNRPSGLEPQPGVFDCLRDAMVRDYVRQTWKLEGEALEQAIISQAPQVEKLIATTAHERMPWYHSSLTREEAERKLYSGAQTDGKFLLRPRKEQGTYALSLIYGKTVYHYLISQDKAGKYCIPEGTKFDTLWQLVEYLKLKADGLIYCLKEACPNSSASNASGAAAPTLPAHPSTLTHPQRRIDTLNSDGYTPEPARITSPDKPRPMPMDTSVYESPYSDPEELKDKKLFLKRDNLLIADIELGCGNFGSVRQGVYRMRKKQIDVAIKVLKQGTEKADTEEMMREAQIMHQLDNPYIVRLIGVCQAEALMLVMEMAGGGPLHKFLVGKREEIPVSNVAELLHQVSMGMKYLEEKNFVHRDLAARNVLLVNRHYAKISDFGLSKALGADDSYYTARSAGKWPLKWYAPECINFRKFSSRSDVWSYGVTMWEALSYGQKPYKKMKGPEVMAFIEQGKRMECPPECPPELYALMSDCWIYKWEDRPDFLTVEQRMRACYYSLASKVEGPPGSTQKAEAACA
UniProt O75385: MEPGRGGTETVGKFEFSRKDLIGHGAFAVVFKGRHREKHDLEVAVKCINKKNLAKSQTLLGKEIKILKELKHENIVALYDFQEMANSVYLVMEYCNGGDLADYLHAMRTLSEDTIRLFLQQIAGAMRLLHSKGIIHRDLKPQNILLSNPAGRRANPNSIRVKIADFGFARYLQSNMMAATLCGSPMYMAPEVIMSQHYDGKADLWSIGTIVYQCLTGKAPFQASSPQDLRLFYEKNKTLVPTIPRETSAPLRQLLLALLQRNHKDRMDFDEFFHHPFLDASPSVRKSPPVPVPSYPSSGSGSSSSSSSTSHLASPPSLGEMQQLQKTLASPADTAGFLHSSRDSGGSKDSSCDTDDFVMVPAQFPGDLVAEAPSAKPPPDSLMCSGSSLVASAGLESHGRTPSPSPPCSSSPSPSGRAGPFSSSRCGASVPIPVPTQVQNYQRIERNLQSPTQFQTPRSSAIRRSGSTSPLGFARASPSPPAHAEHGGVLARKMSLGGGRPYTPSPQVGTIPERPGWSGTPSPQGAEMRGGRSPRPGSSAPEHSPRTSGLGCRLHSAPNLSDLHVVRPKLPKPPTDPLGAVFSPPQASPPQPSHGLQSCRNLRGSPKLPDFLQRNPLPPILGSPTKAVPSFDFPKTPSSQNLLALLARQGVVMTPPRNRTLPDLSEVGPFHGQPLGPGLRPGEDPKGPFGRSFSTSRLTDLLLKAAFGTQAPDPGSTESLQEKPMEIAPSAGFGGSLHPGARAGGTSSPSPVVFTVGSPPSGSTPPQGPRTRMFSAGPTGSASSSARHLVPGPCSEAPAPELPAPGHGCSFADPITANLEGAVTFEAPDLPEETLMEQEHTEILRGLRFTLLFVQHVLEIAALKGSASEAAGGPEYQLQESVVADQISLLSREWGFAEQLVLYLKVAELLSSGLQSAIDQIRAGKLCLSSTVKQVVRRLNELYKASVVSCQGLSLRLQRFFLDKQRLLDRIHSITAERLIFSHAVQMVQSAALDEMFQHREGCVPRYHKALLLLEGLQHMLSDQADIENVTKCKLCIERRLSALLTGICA
UniProt P41279, whole entry: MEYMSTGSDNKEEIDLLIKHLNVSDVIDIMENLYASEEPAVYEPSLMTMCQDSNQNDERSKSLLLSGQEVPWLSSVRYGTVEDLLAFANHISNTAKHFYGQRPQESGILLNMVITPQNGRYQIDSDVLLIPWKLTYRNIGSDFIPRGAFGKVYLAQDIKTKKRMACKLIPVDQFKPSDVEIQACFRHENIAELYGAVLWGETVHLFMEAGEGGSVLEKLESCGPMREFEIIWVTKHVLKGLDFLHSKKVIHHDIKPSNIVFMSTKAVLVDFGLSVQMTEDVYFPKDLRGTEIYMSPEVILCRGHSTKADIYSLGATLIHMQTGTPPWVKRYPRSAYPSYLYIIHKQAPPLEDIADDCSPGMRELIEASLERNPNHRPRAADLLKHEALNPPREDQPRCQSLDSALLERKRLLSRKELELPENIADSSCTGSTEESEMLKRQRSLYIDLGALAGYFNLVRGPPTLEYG
UniProt P54756, whole entry: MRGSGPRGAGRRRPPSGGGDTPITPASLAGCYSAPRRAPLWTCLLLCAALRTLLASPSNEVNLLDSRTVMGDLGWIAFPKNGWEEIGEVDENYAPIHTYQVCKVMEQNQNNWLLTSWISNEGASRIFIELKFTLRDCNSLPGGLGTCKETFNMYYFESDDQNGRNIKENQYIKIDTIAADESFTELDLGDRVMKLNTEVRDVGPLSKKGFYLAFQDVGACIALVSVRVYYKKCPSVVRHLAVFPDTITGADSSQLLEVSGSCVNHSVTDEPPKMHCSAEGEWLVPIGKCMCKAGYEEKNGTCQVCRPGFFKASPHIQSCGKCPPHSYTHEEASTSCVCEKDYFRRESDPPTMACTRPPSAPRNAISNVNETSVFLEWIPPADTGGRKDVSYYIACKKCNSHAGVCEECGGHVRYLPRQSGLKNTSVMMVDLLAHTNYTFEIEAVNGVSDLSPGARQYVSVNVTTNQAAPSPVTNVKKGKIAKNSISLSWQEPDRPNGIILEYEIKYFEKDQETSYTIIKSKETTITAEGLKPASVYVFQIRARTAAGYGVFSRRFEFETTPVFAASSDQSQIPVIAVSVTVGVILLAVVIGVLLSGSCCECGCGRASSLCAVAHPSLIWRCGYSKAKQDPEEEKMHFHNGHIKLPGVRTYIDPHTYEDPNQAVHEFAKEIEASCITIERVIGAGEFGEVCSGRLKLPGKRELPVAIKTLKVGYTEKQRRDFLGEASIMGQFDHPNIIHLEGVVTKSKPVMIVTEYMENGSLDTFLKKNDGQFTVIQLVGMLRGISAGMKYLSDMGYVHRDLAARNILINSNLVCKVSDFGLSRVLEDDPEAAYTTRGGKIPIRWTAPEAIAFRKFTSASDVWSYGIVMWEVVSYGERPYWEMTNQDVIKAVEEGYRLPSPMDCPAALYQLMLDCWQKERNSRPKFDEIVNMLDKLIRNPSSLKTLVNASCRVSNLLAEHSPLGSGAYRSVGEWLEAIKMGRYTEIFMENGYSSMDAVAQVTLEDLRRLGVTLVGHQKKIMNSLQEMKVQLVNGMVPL
UniProt Q9UEE5: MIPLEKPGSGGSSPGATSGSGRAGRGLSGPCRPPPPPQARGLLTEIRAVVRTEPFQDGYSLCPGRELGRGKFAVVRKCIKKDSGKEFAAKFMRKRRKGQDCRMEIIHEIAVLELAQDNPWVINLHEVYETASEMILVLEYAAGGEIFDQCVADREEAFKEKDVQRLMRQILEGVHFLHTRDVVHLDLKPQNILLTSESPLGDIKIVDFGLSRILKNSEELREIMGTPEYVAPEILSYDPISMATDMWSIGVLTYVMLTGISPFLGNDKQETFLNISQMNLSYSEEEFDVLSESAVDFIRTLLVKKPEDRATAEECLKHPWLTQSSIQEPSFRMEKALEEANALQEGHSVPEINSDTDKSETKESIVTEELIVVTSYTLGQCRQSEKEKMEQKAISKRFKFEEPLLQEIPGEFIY
UniProt P11802: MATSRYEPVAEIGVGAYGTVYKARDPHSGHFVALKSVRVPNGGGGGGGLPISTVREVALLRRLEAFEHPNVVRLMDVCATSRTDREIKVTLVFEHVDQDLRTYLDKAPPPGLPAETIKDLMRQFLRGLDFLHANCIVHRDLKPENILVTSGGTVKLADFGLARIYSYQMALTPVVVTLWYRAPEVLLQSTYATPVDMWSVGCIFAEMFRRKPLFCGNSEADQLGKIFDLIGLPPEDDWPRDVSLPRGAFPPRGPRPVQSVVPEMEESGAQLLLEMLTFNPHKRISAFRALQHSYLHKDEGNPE

[5] = biological target: FGR (Homo sapiens, UniProt P09769)
[6] = biological target: GRK4 (Homo sapiens, UniProt P32298)
[7] = biological target: T2, ARK5 (Homo sapiens, UniProt O60285)
T2 construct: gene NUAK1

[8] = biological target: T3, MNK2 (Homo sapiens, UniProt Q9HBH9)
T3 construct: gene MKNK2

[9] = biological target: ACVR1 (Homo sapiens, UniProt Q04771)
[10] = biological target: SYK (Homo sapiens, UniProt P43405)
[11] = biological target: T4, MST3 (Homo sapiens, UniProt Q9Y6E0)
T4 construct: gene STK24

[12] = biological target: CAMK1g (Homo sapiens, UniProt Q96NX5)
[13] = biological target: PAK5 (Homo sapiens, UniProt Q9P286)
[14] = biological target: NEK1 (Homo sapiens, UniProt Q96PY6)
[15] = biological target: T5, TAK1 (Homo sapiens, UniProt O43318)
T5 construct: gene MAP3K7

[16] = biological target: T6, YSK1 (Homo sapiens, UniProt O00506)
T6 construct: gene STK25

[17] = biological target: ZAP70 (Homo sapiens, UniProt P43403)
[18] = biological target: PRKD1 (Homo sapiens, UniProt Q15139)
[19] = biological target: CLK3 (Homo sapiens, UniProt P49761)
[20] = biological target: PLK3 (Homo sapiens, UniProt Q9H4B4)
[21] = biological target: CAMK1d (Homo sapiens, UniProt Q8IU85)
[22] = biological target: CDK2/cyclin E (Homo sapiens, UniProt P24941)
[23] = biological target: ULK1 (Homo sapiens, UniProt O75385)
[24] = biological target: FGFR4 (Homo sapiens, UniProt P22455)
[25] = biological target: MAP2K4 (Homo sapiens, UniProt P45985)
[26] = biological target: MAP3K8 (Homo sapiens, UniProt P41279)
[27] = biological target: EPHA5 (Homo sapiens, UniProt P54756)
[28] = biological target: MAP3K12 (Homo sapiens, UniProt Q12852)
[29] = biological target: CDK1/cyclin B (Homo sapiens, UniProt P06493)
[30] = biological target: T7, MINK (Homo sapiens, UniProt Q8N4C8)
T7 construct: gene MINK1

[31] = biological target: STK17A (Homo sapiens, UniProt Q9UEE5)
[32] = biological target: T8, PKAcg (Homo sapiens, UniProt P22612)
T8 construct: gene PRKACG

[33] = biological target: GRK7 (Homo sapiens, UniProt Q8WTQ7)
[34] = biological target: T9, DMPK2 (Homo sapiens, UniProt Q6DT37)
T9 construct: gene CDC42BPG

[35] = biological target: EPHB2 (Homo sapiens, UniProt P29323)
[36] = biological target: CDK4/cyclin D3 (Homo sapiens, UniProt P11802)

COc1cc(-c2nn(CCN3CCC(N(C)C)CC3)c3ncnc(N)c23)ccc1NC(=O)OC(C)(C)C [eCF506]
remaining activity at 1 µM [1]: 92.9%
remaining activity at 1 µM [2]: 105%
remaining activity at 1 µM [3]: 91.5%
remaining activity at 1 µM [4]: 105%
remaining activity at 1 µM [5]: 1.3%
remaining activity at 1 µM [6]: 99.5%
remaining activity at 1 µM [7]: 95.1%
remaining activity at 1 µM [8]: 107%
remaining activity at 1 µM [9]: 106%
remaining activity at 1 µM [10]: 104%
remaining activity at 1 µM [11]: 110%
remaining activity at 1 µM [12]: 91.5%
remaining activity at 1 µM [13]: 104%
remaining activity at 1 µM [14]: 106%
remaining activity at 1 µM [15]: 102%
remaining activity at 1 µM [16]: 112%
remaining activity at 1 µM [17]: 102%
remaining activity at 1 µM [18]: 109%
remaining activity at 1 µM [19]: 95.2%
remaining activity at 1 µM [20]: 105%
remaining activity at 1 µM [21]: 96.7%
remaining activity at 1 µM [22]: 102%
remaining activity at 1 µM [23]: 93.9%
remaining activity at 1 µM [24]: 94.9%
remaining activity at 1 µM [25]: 107%
remaining activity at 1 µM [26]: 74.6%
remaining activity at 1 µM [27]: 92%
remaining activity at 1 µM [28]: 108%
remaining activity at 1 µM [29]: 95.3%
remaining activity at 1 µM [30]: 129%
remaining activity at 1 µM [31]: 104%
remaining activity at 1 µM [32]: 102%
remaining activity at 1 µM [33]: 98.6%
remaining activity at 1 µM [34]: 91.5%
remaining activity at 1 µM [35]: 66.6%
remaining activity at 1 µM [36]: 96.6%

— PMC7611940, “A Conformation Selective Mode of Inhibiting SRC Improves Drug Efficacy and Tolerability” (Cancer Research, 2021)
